{"source": "paper PMC10145651", "about": "“Modulation of the 5-Lipoxygenase Pathway by Chalcogen-Containing Inhibitors of Leukotriene A4 Hydrolase” (International Journal of Molecular Sciences, 2023)", "biological_target": "T1, LTA4H (Homo sapiens, UniProt P09960)", "T1 sequence (P09960 1-611)": "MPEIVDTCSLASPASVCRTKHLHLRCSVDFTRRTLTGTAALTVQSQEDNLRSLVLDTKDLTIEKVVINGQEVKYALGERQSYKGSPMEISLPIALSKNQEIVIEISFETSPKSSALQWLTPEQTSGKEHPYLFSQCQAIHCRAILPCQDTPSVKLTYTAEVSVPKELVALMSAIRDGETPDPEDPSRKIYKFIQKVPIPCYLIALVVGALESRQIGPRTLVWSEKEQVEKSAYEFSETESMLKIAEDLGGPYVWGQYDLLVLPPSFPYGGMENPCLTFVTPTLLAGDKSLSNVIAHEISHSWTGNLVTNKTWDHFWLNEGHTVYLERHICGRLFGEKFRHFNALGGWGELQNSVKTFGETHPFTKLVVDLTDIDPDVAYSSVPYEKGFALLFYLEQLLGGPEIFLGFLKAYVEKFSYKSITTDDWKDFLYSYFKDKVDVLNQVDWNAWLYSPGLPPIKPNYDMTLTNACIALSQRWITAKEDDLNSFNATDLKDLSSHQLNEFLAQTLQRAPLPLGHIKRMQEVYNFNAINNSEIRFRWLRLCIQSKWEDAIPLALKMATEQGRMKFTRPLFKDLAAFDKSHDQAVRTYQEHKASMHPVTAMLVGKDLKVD", "assay": "Peptidase assay of LTA4H with pNa and AMC conjugates", "format": "biochemical", "parameters": "made in house; host or cells: Escherichia coli JM101", "details": "in parentheses", "experimental": "In addition, the aminopeptidase assay was performed with p-nitroanilide (pNa) and 7-amido-4-methylcoumarin (AMC) conjugates containing different N-terminal amino acids. Incubations were carried out with 1 μg LTA4H and 1 mM pNa substrates or 5 µM AMC substrates in 400 μL 10 mM Tris-HCl pH 7.8 containing 100 mM KCl at room temperature for 30 min. The absorbance of released pNa was measured after every 5 min at 405 nm using a TECAN Infinite M200 plate reader. The measurements with AMC derivatives were carried out using a black polystyrene 96-well plate and the fluorescence of released AMC at 360 nm/460 nm (ex/em) was recorded. Specific activities were calculated based on the standard curves of free pNA and AMC (Figure S10). The activation (AC50) or inhibition constants (IC50) were determined using the non-linear regression approach in the GraphPad Prism 9 program.", "key": {"[1]": {"details": "vs LTA4H without inhibitor (decrease)"}, "[2]": {"details": "vs LTA4H without inhibitor (increase)"}}}
{"smiles": "Nc1nc(-c2ccc(Cc3ccccc3)cc2)cs1", "note": "[ARM1, 4-(4-benzylphenyl) thiazol-2-amine, reference compound]", "values": [{"measurement": "fold change of specific activity with L-Pro-pNa", "setting": "vs LTA4H without inhibitor", "result": 1, "unit": "x"}, {"measurement": "fold change of specific activity with L-Arg-AMC", "setting": "[1]", "result": 3, "unit": "x"}, {"measurement": "fold change of specific activity with L-Arg-pNa", "setting": "[1]", "result": 94, "unit": "x"}, {"measurement": "fold change of specific activity with L-Pro-AMC", "setting": "[1]", "result": 2, "unit": "x"}, {"measurement": "fold change of specific activity with L-Ala-pNa", "setting": "[2]", "result": 8, "unit": "x"}, {"measurement": "fold change of specific activity with L-Leu-pNa", "setting": "[2]", "result": 12, "unit": "x"}, {"measurement": "fold change of specific activity with L-Val-pNa", "setting": "[2]", "result": 30, "unit": "x"}]}
